Assays:
BACE-1 enzyme = BACE-1 enzyme (Homo sapiens, UniProt P56817); assay: BACE Fluorescence Resonance Energy Transfer (FRET) Assay; conditions: read-out: IC50 (μM) FRET assay, pH 4-4.5, 30 min pre-incubation, about 1.5 hours reaction, asterisk = mean
Description: BACE Fluorescence Resonance Energy Transfer (FRET) Assay
In the following assay, the proteolytic activity of BACE is measured by observing cleavage of a fluorescent group from a peptide substrate containing a rhodamine fluorescent donor and a quenching acceptor.
The inhibitory activity of compounds of Formula (I) may be compared to a statine derived control inhibitor STA200 (MP Biomedical Cat. #STA-200). The cleavage reaction occurs when a BACE-1 substrate (Invitrogen, Cat. #P2986) was added to a reaction mixture containing BACE-1 enzyme (R & D Systems, Cat. #931AS) and allowed to proceed for about 1.5 hours. Fluorescence, used as a marker of BACE activity, is monitored using 540 nm excitation and 585 nm emission wavelengths (Envision, Perkin Elmer).
A typical assay reaction contains BACE-1 enzyme-in assay buffer (50 mM sodium acetate, pH 4-4.5, 0.01% CHAPS (3-[(3-Cholamidopropyl)dimethylammonio]-1-propanesulfonate), 0.0125% TritonX-100, 0.006% EDTA) which is pre-incubated for 30 minutes with test compound in 7.5% DMSO. The reaction is initiated with the addition of BACE-1 substrate in assay buffer and allowed to proceed for about 1.5 hours at room temperature. Assays are conducted in black 384-well microtiter plates and scanned at room temperature using 540 nm excitation and 585 nm emission wavelengths.
In some instances, the percent inhibition at a given concentration is reported instead of the IC50.

Chains of the proteins cited; added tags and fusions are not shown. Residues count along the entry.
UniProt P56817, 46-457 limits assumed: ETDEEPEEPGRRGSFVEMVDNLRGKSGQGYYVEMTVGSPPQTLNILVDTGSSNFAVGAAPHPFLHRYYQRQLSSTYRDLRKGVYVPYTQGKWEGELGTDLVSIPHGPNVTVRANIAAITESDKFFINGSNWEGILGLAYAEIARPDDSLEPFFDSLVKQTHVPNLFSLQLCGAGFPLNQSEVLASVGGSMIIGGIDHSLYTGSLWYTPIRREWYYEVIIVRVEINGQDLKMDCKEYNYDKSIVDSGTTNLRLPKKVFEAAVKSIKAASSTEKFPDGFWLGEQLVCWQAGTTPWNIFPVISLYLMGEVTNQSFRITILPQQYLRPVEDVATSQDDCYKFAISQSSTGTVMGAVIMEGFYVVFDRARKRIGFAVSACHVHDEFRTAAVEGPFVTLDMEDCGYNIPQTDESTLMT

[1] = system: Aβ1-40 secreted from HEK293 cells stably expressing wildtype human APP695 protein (HEK-APPwt cells); proteolytic activity of BACE; assay: Aβ Cell Based Assay (Aβ1-40 secretion, ELISA); conditions: read-out: EC50 (μM) Cell-Based Assay, 6 hours incubation, reduction of Aβ1-40 secretion, asterisk = mean
Description: Aβ Cell Based Assay Procedure
In the following assay, the proteolytic activity of BACE in cells exposed to varying concentrations of a compound of interest is measured by observing the amount of Aβ1-40 secreted from HEK293 cells (Human Embryonic Kidney epithelial cell line) stably expressing wildtype human APP695 protein (HEK-APPwt cells).
HEK-APPwt cells were grown in high glucose DMEM (Dulbecco's Modified Eagles Medium SIGMA Cat. #D5796) supplemented with 25 mM HEPES (4-(2-hydroxyethyl)-1-piperazineethanesulfonic acid) (pH 7.4) (Invitrogen Cat. #15630-114), 0.1 mM NEAA (Non-essential Amino Acids) (BioWhittaker Cat. #13-114E), 10% fetal bovine serum (SIGMA Cat. #F4135) and 250 μg/mL hygromycin (Invitrogen Cat. #10687-010) in T-225 flasks at 37° C. with 5% CO2 and humidity control.
Test compounds were initially prepared in DMSO and diluted with DMEM media containing 2% FBS (Fetal bovine serum). Ten standard compound solutions were prepared having a range of concentrations. The standard compound solutions were used to determine the EC50 of the test compound. The range of concentrations chosen may depend on the compound's predicted potency.
To prepare cells for the assay, a flask containing HEK-APPwt cells were trypsinized briefly (1 mL trypsin), and once the cells detached, 4 mL of 10% FBS-DMEM was added to the flask. The detached cells were centrifuged at 900 rpm for 5 min to form a pellet.
The HEK-APPwt cell pellet was re-suspended with 10 mL DMEM media containing 2% FBS. 80 μL of the cell suspension was added to each well of a 96-well cell culture plate to give 100×10^4 cells/ml. 10 μL of a standard compound solution was added to each well of the 96-well cell culture plate followed by 10 μL of Alamar blue solution. The cells were incubated at 37° C. in a 5% CO2 incubator for 6 hours.
At the end of the incubation, the plates were removed from incubator, and the supernatant was collected. Aβ1-40 concentration in the medium was measured by using a commercial Aβ1-X ELISA kit (IBL, Japan Cat. #27729). Briefly, the ELISA plates were coated with an anti-human Aβ (N)(82E1) mouse IgG monoclonal antibody. A horseradish peroxidase conjugated anti-human Aβ11-28 mouse IgG monoclonal antibody was used for detection. The cell culture supernatant was diluted with EIA buffer+protease inhibitors (kit buffer containing protease inhibitors (1 mL PI/30 mL buffer)). A 100 μL aliquot of the diluted supernatant was added to each well of the ELISA plate and incubated for 6 hrs at 4° C. The ELISA plate was washed 8 times with phosphate buffered saline (PBS) containing 0.05% TWEEN 20.
A 100 μL of detection antibody was then added and incubated for 1 hour at 4° C. The plate was washed 8 times with PBS buffer containing 0.05% Tween 20 followed by addition of 100 μL of the chromogen tetramethylbenzidine (TMB). The plate was incubated in the dark at room temperature for about 30 min and a stop solution (1N H2SO4) was added.
The intensity of the color developed was measured at 450 nm. The optical density at 450 nm (OD450) is proportional to the concentration of human Aβ1-40 secreted by the cell. As a reference, N—[N-(3,5-difluorophenacetyl-L-alanyl)]—S-phenylglycine t-butyl ester (DAPT, a γ-secretase inhibitor) was used to indicate 100% inhibition of […]. Thus, the assay measures the ability of a compound of interest to reduce Aβ1-40 secretion. Compound potency is reported in Table 3 as the EC50 by calculating the percent inhibition at all concentration levels and the data were fit with non-linear curve fitting algorithm using GraphPad Prism.

SMILES | IC50 (BACE-1 enzyme) [µM] | EC50 [1] [µM]
C[C@@H](F)COc1ccc2nc(C(=O)Nc3nc4cc(-c5cccc(C(F)(F)F)c5)ccc4[nH]3)cn2n1 | 0.174 | –
C[C@H](CO)Oc1ccc2nc(C(=O)Nc3nc4cc(-c5cccc(OC(F)(F)F)c5)ccc4[nH]3)cn2n1 | 0.313 | 1.95
NCCOc1ccc2nc(C(=O)Nc3nc4cc(-c5cccc(OC(F)(F)F)c5)ccc4[nH]3)cn2n1 | 0.104 | –
O=C(Nc1nc2cc(OCc3ccc(Cl)cc3)ccc2[nH]1)c1cn2nc(Cl)ccc2n1 | 0.286 | –
O=C(Nc1nc2cc(OCc3ccc(C(F)(F)F)cc3)ccc2[nH]1)c1cn2nc(Cl)ccc2n1 | 0.132 | –
C[C@H](O)C[C@H](C)Oc1ccc2nc(C(=O)Nc3nc4cc(-c5cccc(C(F)(F)F)c5)ccc4[nH]3)cn2n1 | 0.318 | 1.94
CN1CCN(c2ccc3nc(C(=O)Nc4nc5cc(-c6cccc(C(F)(F)F)c6)ccc5[nH]4)cn3n2)CC1 | 0.261 | –
COC[C@@H](CO)Oc1ccc2nc(C(=O)Nc3nc4cc(-c5cccc(C(F)(F)F)c5)ccc4[nH]3)cn2n1 | 0.229 | 1.16
O=C(Nc1nc2cc(-c3cccc(OC(F)(F)F)c3)ccc2[nH]1)c1cn2nc(SCCO)ccc2n1 | 0.171 | 0.97
CN(C)CCOc1ccc2nc(C(=O)Nc3nc4cc(-c5cccc(C(F)(F)F)c5)ccc4[nH]3)cn2n1 | 0.376 | –
CCCC[C@@H](O)COc1ccc2nc(C(=O)Nc3nc4cc(-c5cccc(C(F)(F)F)c5)ccc4[nH]3)cn2n1 | 0.348 | 0.23
O=C(Nc1nc2cc(-c3cccc(C(F)(F)F)c3)ccc2[nH]1)c1cn2nc(OCC(F)(F)CO)ccc2n1 | 0.224 | 0.26
O=C(Nc1nc2cc(OCc3ccccc3)ccc2[nH]1)c1cn2nc(Cl)ccc2n1 | 0.099 | –
CN(C)c1ccc2nc(C(=O)Nc3nc4cc(-c5cccc(OC(F)(F)F)c5)ccc4[nH]3)cn2n1 | 0.297 | –
CNc1ccc2nc(C(=O)Nc3nc4cc(-c5cccc(OC(F)(F)F)c5)ccc4[nH]3)cn2n1 | 0.3 | –
N[C@@H]1CCCN(c2ccc3nc(C(=O)Nc4nc5cc(-c6cccc(C(F)(F)F)c6)ccc5[nH]4)cn3n2)C1 | 0.32 | –
O=C(Nc1nc2cc(-c3cccc(OC(F)(F)F)c3)ccc2[nH]1)c1cn2nc(OCC3CCOC3)ccc2n1 (stereo not drawn) | 0.204 | 0.44
CC(C)(CO)COc1ccc2nc(C(=O)Nc3nc4cc(-c5cccc(C(F)(F)F)c5)ccc4[nH]3)cn2n1 | 0.188 | 0.8
COc1ccc2nc(C(=O)Nc3nc4cc(-c5cccc(C(F)(F)F)c5)ccc4[nH]3)cn2n1 | 0.255 | –
O=C(Nc1nc2cc(-c3cccc(OC(F)(F)F)c3)ccc2[nH]1)c1cn2nc(OC(CO)CO)ccc2n1 | 0.281 | 3.27
O=C(Nc1nc2cc(-c3ccc(Cl)c(C(F)(F)F)c3)ccc2[nH]1)c1cn2nc(Cl)ccc2n1 | 0.368 | –

From patent US8450354B2, “Substituted imidazo[1,2-b]pyridazine derivatives, pharmaceutical compositions, and methods of use as β-secretase inhibitors” (High Point Pharmaceuticals, LLC, priority 2010, dated 2013)
